Measured values published in PubChem BioAssay AID743398 (Broad Institute, 2014).
The entries are a selection whose mix differs from that of the whole data set. Some structures show a salt or complex split into parts, the way the source records it. Calls of active or inactive are those of the source. Rule as the data show it: active = activation above about 30% (passing the limit was not always enough); inconclusive = no clear call, values can overlap the other calls.

Experiment: Wnt/beta-catenin pathway activators, primary screen, cell-based, plate reader, single point (AID 743398);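 also: 0% = neutral control wells and 100% = positive control wells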
Details: Wnt/beta-catenin reporter cell assay, activator, at 9.35 µM, hits give high values

Row | SMILES | activation
1 | Cc1ccccc1NP(C)(=O)Nc1ccccc1C | inactive: -0.891%
2 | CP(=O)(Nc1ccc(SC(F)(F)F)cc1)Oc1ccc(F)cc1 (configuration not stated) | inactive: -0.704%
3 | CCOP(=O)(CC)OCC | inactive: 1.77%
4 | CCOP(C)(=S)SCC(=O)NC(C)(CC)C(=O)O (configuration not stated) | inactive: -1.01%
5 | Cc1cc(-c2cccc3ccccc23)c(C)cn1.O=[N+]([O-])c1cc([N+](=O)[O-])c(O)c([N+](=O)[O-])c1 | inactive: 2.02%
6 | O=[N+]([O-])c1cc([N+](=O)[O-])c(NCC2CCS(=O)(=O)C2)c([N+](=O)[O-])c1 (configuration not stated) | inactive: 21.9%
7 | O=[N+]([O-])c1ccc(OP2(=O)COCCO2)cc1 (configuration not stated) | inactive: -1.37%
8 | Cc1c(C(c2ccc3c(c2)OCO3)c2c(C)n(C)n(-c3ccccc3)c2=O)c(=O)n(-c2ccccc2)n1C.O=[N+]([O-])c1cc([N+](=O)[O-])c(O)c([N+](=O)[O-])c1 | inactive: 1.88%
9 | COc1ccc(OP(C)(=O)Nc2cccc(Br)c2)cc1 (configuration not stated) | inactive: -4.2%
10 | COc1ccc(NP(C)(=O)Oc2ccccc2OC)cc1 (configuration not stated) | inactive: -0.362%
11 | Cc1c([N+](=O)[O-])cc([N+](=O)[O-])c(Br)c1[N+](=O)[O-] | inactive: -2%
12 | CCCCCOc1ccc(NP(C)(=O)Oc2ccc(Cl)cc2Cl)cc1 (configuration not stated) | inactive: 0.347%
13 | O=[N+]([O-])c1cc([N+](=O)[O-])c(OC2CCCCC2O)c([N+](=O)[O-])c1 (configuration not stated) | inactive: 0.363%
14 | CP(=O)(Nc1ccccc1)Oc1ccc(F)cc1 (configuration not stated) | inactive: -6.6%
15 | COc1ccc(OP(C)(=O)Nc2ccc(SC(F)(F)F)cc2)cc1 (configuration not stated) | inactive: -1.15%
16 | CCOC(=O)c1ccc(NP(C)(=O)Oc2ccc(F)cc2)cc1 (configuration not stated) | inactive: -2.21%
17 | O=C(OCCN1CCN(CCOCc2ccccc2)CC1)C(O)(c1ccccc1)c1ccccc1 | inactive: -1.72%
18 | O=C(OC1CN2CCC1CC2)c1ccc([N+](=O)[O-])cc1 (configuration not stated) | inactive: -0.157%
19 | COc1ccc2c(c1O)-c1c(O)c(OC)cc3c1[C@H](C2)[N+](C)(C)CC3.O=[N+]([O-])c1cc([N+](=O)[O-])c([O-])c([N+](=O)[O-])c1[O-] | inactive: 12.1%
20 | O=[N+]([O-])c1cc([N+](=O)[O-])c(Nc2ccc(Cl)cc2)c([N+](=O)[O-])c1 | inactive: -5.94%
21 | CC(C)c1ccc(OP(C)(=O)Nc2ccc(SC(F)(F)F)cc2)cc1 (configuration not stated) | inactive: -2.52%

Row | SMILES | activation
22 | CP(=O)(Nc1ccccc1F)Oc1ccccc1 (configuration not stated) | inactive: -1.27%
23 | Cc1c(NP(C)(=O)Oc2ccc(C(C)C)cc2)c(=O)n(-c2ccccc2)n1C (configuration not stated) | inactive: -1.62%
24 | O=[N+]([O-])c1cc([N+](=O)[O-])c(Nc2ccccn2)c([N+](=O)[O-])c1 | inactive: -0.635%
25 | CCc1ccc(OP(C)(=O)O)cc1 | inactive: -3.55%
26 | COc1ccccc1OP(C)(=O)Nc1ccc(C)cc1C (configuration not stated) | inactive: -4.86%
27 | COc1ccccc1OP(C)(=O)Nc1ccc(Br)cc1 (configuration not stated) | inactive: -1.28%
28 | CN(C)CCOC(=O)C(O)(c1ccccc1)C1CCCC1 (configuration not stated) | inactive: -4.97%
29 | COc1ccc(OP(C)(=O)Nc2ccccn2)cc1 (configuration not stated) | inactive: -5.73%
30 | CCCCCCCCCCCCCCCC1C[N+](C)(C)CCOP(C)(=O)O1 (configuration not stated) | inactive: -2.41%
31 | CP(=O)(Nc1ccc(Cl)cc1Cl)Oc1ccccc1 (configuration not stated) | inactive: -0.952%
32 | CP(=O)(OCCOc1ccccc1)OCCOc1ccccc1 | inactive: -0.875%
33 | O=C1C(O)=C([N+](=O)[O-])C(=O)C(O)=C1[N+](=O)[O-] | inactive: -7.93%
34 | Cc1cc(C)cc(OP(C)(=O)Nc2cccc(C(F)(F)F)c2)c1 (configuration not stated) | inactive: -1.03%
35 | COc1ccc(OP(C)(=O)Nc2ccccc2Br)cc1 (configuration not stated) | inactive: 1.75%
36 | Nc1ccc2c(ccc3cccnc32)n1.O=[N+]([O-])c1cc([N+](=O)[O-])c(O)c([N+](=O)[O-])c1 | inactive: 26.2%
37 | CP(=O)(OC12CC3CC(CC(C3)C1)C2)OC12CC3CC(CC(C3)C1)C2 | inactive: -0.178%
38 | CCOC(=O)c1ccc(NP(C)(=O)Oc2ccc(Cl)cc2)cc1 (configuration not stated) | inactive: -0.886%
39 | COc1ccccc1OP(C)(=O)Nc1ccccc1Br (configuration not stated) | inactive: 0.326%
40 | CN(C)C(=O)c1c([N+](=O)[O-])cc([N+](=O)[O-])cc1[N+](=O)[O-] | inactive: -0.239%
41 | CCN(CC)CC(O)COC(=O)C(O)(c1ccccc1)C1CCCCC1 (configuration not stated) | inactive: 18.4%
42 | COc1ccc(OP(C)(=O)Nc2ccc(Br)cc2)cc1 (configuration not stated) | inactive: -4.4%

Row | SMILES | activation
43 | CCc1ccc(OP(C)(=O)Nc2cccnc2)cc1 (configuration not stated) | inactive: -0.646%
44 | COc1ccccc1OP(C)(=O)Nc1c(C)n(C)n(-c2ccccc2)c1=O (configuration not stated) | inactive: 0.457%
45 | O=C(OCCCN1CCCC1)C(O)(c1ccccc1)C1CCCCC1 (configuration not stated) | inactive: 1.11%
46 | CCOC(=O)c1ccc(NP(C)(=O)Oc2ccc(OC)cc2)cc1 (configuration not stated) | inactive: 0.764%
47 | O=[N+]([O-])c1cc([N+](=O)[O-])c(O)c([N+](=O)[O-])c1.c1ccc(Oc2ccncc2)cc1 | inactive: 1.71%
48 | CP(=O)(Nc1ccccn1)Oc1ccc(Cl)cc1 (configuration not stated) | inactive: -0.142%
49 | CP(=O)(Nc1ccc(SC(F)(F)F)cc1)Oc1ccc(Cl)cc1 (configuration not stated) | inactive: 9.94%
50 | CP(=O)(Oc1ccccc1)OC(c1ccccc1)C(F)(F)F (configuration not stated) | inactive: 0.341%
51 | CP(=O)(NC(=O)Nc1ccccc1)Oc1ccccc1 (configuration not stated) | inactive: -2.47%
52 | CCc1ccc(OP(C)(=O)N2CCN(c3ccc([N+](=O)[O-])cc3)CC2)cc1 (configuration not stated) | inactive: -10.7%
53 | Cc1cc(C)cc(OP(C)(=O)Nc2ccc(SC(F)(F)F)cc2)c1 (configuration not stated) | inactive: -4.19%
54 | COc1ccccc1OP(C)(=O)Nc1ccccc1 (configuration not stated) | inactive: 0.66%
55 | CP(=O)(Nc1ccccc1Br)Oc1ccccc1 (configuration not stated) | inactive: -3.49%
56 | CCOC(=O)c1ccc(NP(C)(=O)Oc2ccccc2)cc1 (configuration not stated) | inactive: -4.71%
57 | Cc1ccc(NP(C)(=O)Oc2ccccc2)c(C)c1 (configuration not stated) | inactive: 2.16%
58 | COc1ccccc1OP(C)(=O)Nc1cc(Cl)ccc1C (configuration not stated) | inactive: -0.536%
59 | COc1ccc(OP(C)(=O)Nc2cccc(F)c2)cc1 (configuration not stated) | inactive: -8.1%
60 | Cc1cc(C)cc(OP(C)(N)=O)c1 (configuration not stated) | inactive: 1.76%
61 | O=[N+]([O-])c1cc([N+](=O)[O-])c(Nc2cccnc2)c([N+](=O)[O-])c1 | inactive: -0.869%
62 | CC(C)(C)c1ccc(OP(C)(=O)Nc2ccc(SC(F)(F)F)cc2)cc1 (configuration not stated) | inactive: -7.09%
63 | Cc1cccc(C)c1OP(C)(N)=O (configuration not stated) | inactive: 0.523%

Row | SMILES | activation
64 | O=[N+]([O-])c1ccc2c(c1)C=Nc1ccccc1O2 | inactive: -2.26%
65 | COc1ccccc1-c1ccccn1.O=[N+]([O-])c1cc([N+](=O)[O-])c(O)c([N+](=O)[O-])c1 | inactive: 0.136%
66 | CCN(CC)CCCOC(=O)C(O)(c1ccccc1)c1ccccc1 | inactive: -0.666%
67 | CP(=O)(Nc1cccc(Br)c1)Oc1ccccc1 (configuration not stated) | inactive: -0.202%
68 | COc1ccccc1OP(C)(=O)Nc1cccc(Br)c1 (configuration not stated) | inactive: 4.25%
69 | Cc1cc(C)cc(OP(C)(=O)Nc2ccc(C)cc2C)c1 (configuration not stated) | inactive: -3.25%
70 | CCOC(=O)c1ccc(NP(C)(=O)Oc2cc(C)cc(C)c2)cc1 (configuration not stated) | inactive: -1.01%
71 | O=C(O)c1cccc(Nc2c([N+](=O)[O-])cc([N+](=O)[O-])cc2[N+](=O)[O-])c1 | inactive: 8.96%
72 | COc1ccccc1OP(C)(=O)Nc1c(C)cccc1C (configuration not stated) | inactive: -1.65%
73 | CN1CCCCC1COC(=O)C1(O)c2ccccc2CCc2ccccc21 (configuration not stated) | inactive: -2.5%
74 | CCCOc1ccc(NP(C)(=O)Oc2ccc(Cl)cc2)cc1 (configuration not stated) | inactive: -1.34%
75 | CP(=O)(Nc1ccc(SC(F)(F)F)cc1)Oc1ccccc1 (configuration not stated) | inactive: -6.72%
76 | COc1ccc(-c2ccccn2)cc1.O=[N+]([O-])c1cc([N+](=O)[O-])c(O)c([N+](=O)[O-])c1 | inactive: -0.764%
77 | O=[N+]([O-])c1cc([N+](=O)[O-])c(Nc2nnnn2CCO)c([N+](=O)[O-])c1 | inactive: -1.74%
78 | CCOC(=O)C(CC)C1=NC(C)(C)Cc2ccccc21.O=[N+]([O-])c1cc([N+](=O)[O-])c(O)c([N+](=O)[O-])c1 (configuration not stated) | inactive: -2.22%
79 | O=[N+]([O-])c1cc([N+](=O)[O-])c(-c2cnn(-c3ccccc3)c2)c([N+](=O)[O-])c1 | inactive: 3.03%
80 | Cc1nc2ccc3ccccc3c2s1.O=[N+]([O-])c1cc([N+](=O)[O-])c(O)c([N+](=O)[O-])c1 | inactive: -5.05%
81 | O=[N+]([O-])c1cc([N+](=O)[O-])c(-n2nnc3ccccc32)c([N+](=O)[O-])c1 | inactive: -0.797%
82 | CN(Cc1cccnc1)C(=O)COc1ccc(Cl)c(Cl)c1.O=[N+]([O-])c1cc([N+](=O)[O-])c(O)c([N+](=O)[O-])c1 | inactive: -1.01%
